Experimental data reported in PubChem BioAssay AID1259422 (The Scripps Research Institute Molecular Screening Center, 2018).
The list shows a part of the results, in another mix than the full data. Calls of active or inactive are those of the source. Rule as the data show it: active = inhibition above about 32%; inactive = the rest.

Experiment: TEAD-YAP interaction inhibition, primary screen, TEAD-YAP interaction inhibitor project, luminescence, HEK-TIYL cells (AID 1259422);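 also: 0% = median of test compound wells and 100% = reference inhibitor wells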
Conditions: TEAD-Gal4/YAP UAS-luciferase luminescence, at 9.12 µM, hits give high values

| SMILES | inhibition |
| --- | --- |
| O=C(COC(=O)C(O)(c1ccccc1)c1ccccc1)NCCN1C(=O)CSC1=O | inactive: 7.74% |
| O=[N+]([O-])c1ccc(NCCCCNc2ccc([N+](=O)[O-])cc2[N+](=O)[O-])c([N+](=O)[O-])c1 | inactive: -2.12% |
| CCOP1(=O)O/C(=C\Cl)CN1c1ccccc1 (stereo not given) | inactive: 3.7% |
| O=C(NNC1=NCC(CBr)S1)c1ccccc1 (stereo not given) | inactive: 12.2% |
| CCOC(=O)c1ccc(NC2=NCC(CBr)S2)cc1 (stereo not given) | inactive: -26% |
| Cc1ccc2nc(NCCCl)[nH]c2c1 | inactive: -36.7% |
| CCOP(=O)(OCC)C(NC(=O)OC)C(Cl)(Cl)Cl (stereo not given) | inactive: 4.48% |
| O=P1(Nc2nncs2)C=C(c2ccccc2)SC(c2ccccc2)=C1 | inactive: 4.42% |
| CN(C)c1ccc(/[N+]([O-])=C/c2c([N+](=O)[O-])cc([N+](=O)[O-])cc2[N+](=O)[O-])cc1 | inactive: -5.97% |
| CNc1c([N+](=O)[O-])cc([N+](=O)[O-])c2nonc12 | inactive: -1.02% |
| Cc1cc(NC2=NC3C(C(=O)N(C)C(=O)N3C)N2C)n(-c2ccccc2)n1 (stereo not given) | inactive: 3.87% |
| O=[N+]([O-])c1cc([N+](=O)[O-])c(N(CC(O)CO)c2ccccc2)c([N+](=O)[O-])c1 (stereo not given) | inactive: 0.86% |
| CCOP(=O)(OCC)C(OC(=O)C(Cl)(Cl)Cl)=C(Cl)Cl | inactive: -1.33% |
| O=C(c1cccnc1)N(Cc1ccco1)C1CCN(CCc2ccccn2)CC1 | inactive: -6.06% |
| COC(=O)C(CC(C)C)NC(=O)NP(=O)(Oc1ccccc1)Oc1ccccc1 (stereo not given) | inactive: 1.59% |
| Cc1ccc([N+](=O)[O-])c2no[n+]([O-])c12 | inactive: -3.09% |
| O=P1(Nc2nc3ccc(Cl)cc3s2)COc2ccccc2O1 (stereo not given) | inactive: -0.47% |
| COc1ccc([N+](=O)[O-])cc1NC(=O)c1ccc([N+](=O)[O-])cc1[N+](=O)[O-] | inactive: 1.74% |

| SMILES | inhibition |
| --- | --- |
| CC(=O)N(Cc1ccco1)C1CCN(CCc2ccccn2)CC1 | inactive: 1.78% |
| O=c1c2cc([N+](=O)[O-])ccc2[nH]c2c([N+](=O)[O-])cc([N+](=O)[O-])cc12 | inactive: 16.4% |
| O=C(c1ccco1)N(Cc1cccnc1)C1CCN(CCc2ccccn2)CC1 | inactive: -1.58% |
| CC(=O)O[C@H]1CN2CCC1[C@@H](c1ccccc1)C2 (stereo not given in full) | inactive: 1.14% |
| CCOP(=S)(NN(CCCl)c1ccccc1)OCC | active: 40.1% |
| O=C(COC(=O)C(O)(c1ccccc1)c1ccccc1)NC12CC3CC(CC(C3)C1)C2 | inactive: -9.96% |
| O=C(NNc1ccc([N+](=O)[O-])cc1[N+](=O)[O-])c1cccc([N+](=O)[O-])c1 | inactive: 19.4% |
| O=C(c1cccc([N+](=O)[O-])c1)c1ccc([N+](=O)[O-])c([N+](=O)[O-])c1 | inactive: -5.49% |
| ClC1CSc2nc3ccccc3n2C1 (stereo not given) | inactive: 1.43% |
| O=[N+]([O-])c1ccc(N/N=C/c2ccc([N+](=O)[O-])o2)c([N+](=O)[O-])c1 | inactive: 4.87% |
| O=P1(c2ccccc2)N=C(c2ccccc2)NC(C(Cl)(Cl)Cl)=N1 (stereo not given) | inactive: -4.77% |
| COC(=O)N(c1ccccc1)P1(=S)OCC(C)O1 (stereo not given) | inactive: 14.8% |
| CCOP(=O)(OCC)C(=O)c1ccccc1I | inactive: -2.39% |
| O=C(Nc1cccc(F)c1)N(Cc1cccnc1)C1CCN(CCc2cccs2)CC1 | inactive: 3.94% |
| CC(C)OP(=O)(OC(C)C)C(C)N (stereo not given) | inactive: 8.86% |
| CN(C)c1ccc2c(c1)N1Cc3ccccc3C1=NP2(=O)c1ccccc1 (stereo not given) | inactive: 7.76% |
| Cc1c([N+](=O)[O-])cc(C(=O)c2cc([N+](=O)[O-])c(C)c([N+](=O)[O-])c2)cc1[N+](=O)[O-] | inactive: 2.77% |
